Assay [1] has as its target human estrogen receptor α (hERα) (Homo sapiens, UniProt P03372). The assay is described as follows: antagonistic activity in CHO cells co-transfected with hERα, rat oxytocin promoter and luciferase reporter gene. Type of assay: cell-based. The following applies: antagonism of 17β-estradiol-induced transactivation, CHO-hERα-RO-LUC. On the procedure:
The antagonistic activity of compounds on the estrogen receptors was determined in an in vitro bioassay with recombinant Chinese Hamster Ovary (CHO) cells stably co-transfected with the human estrogen receptor α (hERα), the rat oxytocin promoter (RO) and the luciferase reporter gene (LUC). The potency of a test compound to antagonize the transactivation of the enzyme luciferase by 17β-estradiol and mediated via the estrogen receptors hERα is expressed as IC50 in mol/l and/or as pIC50 (−log(IC50)) and/or as percentage (%) relative to the IC50 of the standard anti-estrogen ICI 164.384 (potency test compound=(IC50 ICI 164,384/IC50 test compound)×100%). The antagonistic efficacy, i.e. the amount of maximal inhibition of the 17β-estradiol activated receptor by a compound, is expressed as fraction relative to the maximal inhibition as induced by the standard anti-estrogen ICI 164,384 (efficacy test compound=(maximal inhibition test compound/maximal inhibition ICI 164,384)). A more detailed description of the methodology can be found in De Gooyer et al., Steroids, 68 (2003) 21-30.

Protein sequences, listed by entry. Tags and fused reporters are not part of them.
UniProt P03372, whole entry: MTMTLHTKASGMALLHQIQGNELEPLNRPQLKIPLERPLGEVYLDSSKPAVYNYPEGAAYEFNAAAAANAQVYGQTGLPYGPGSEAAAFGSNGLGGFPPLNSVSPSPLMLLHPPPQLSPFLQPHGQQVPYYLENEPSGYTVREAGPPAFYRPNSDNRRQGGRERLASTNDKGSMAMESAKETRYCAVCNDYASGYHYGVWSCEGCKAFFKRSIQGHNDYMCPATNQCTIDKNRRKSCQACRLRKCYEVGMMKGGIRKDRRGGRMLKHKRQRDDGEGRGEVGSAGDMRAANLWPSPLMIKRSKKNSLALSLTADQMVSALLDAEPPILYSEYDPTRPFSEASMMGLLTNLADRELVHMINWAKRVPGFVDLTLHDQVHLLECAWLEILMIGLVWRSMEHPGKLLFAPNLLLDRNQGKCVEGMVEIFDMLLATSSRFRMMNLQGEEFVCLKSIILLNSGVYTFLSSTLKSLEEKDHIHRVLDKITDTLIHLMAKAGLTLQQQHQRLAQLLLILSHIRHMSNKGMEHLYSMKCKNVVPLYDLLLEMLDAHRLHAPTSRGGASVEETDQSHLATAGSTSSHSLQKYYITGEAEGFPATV

The next assay concerns the target T1, estrogen receptor alpha (Homo sapiens, UniProt P03372).
T1 construct: endogenous in cells; host or cells: T47D human breast cancer cells (ATCC)
The assay is described as follows: ERα downregulation assay in T47D breast cancer cells (ERα ELISA). Type of assay: cell-based. The following applies: downregulation of ERα relative to fulvestrant (100%), 1E-5 M, 24 hours, negative = upregulation. From the text: More specifically, this in vitro bioassay is used to determine the efficacy (fraction of maximal response) of the compound by comparing the data for this compound with those of the reference compound ICI 182,780 (fulvestrant) in the same test (downregulation of fulvestrant is 100% by definition).
A more detailed description of the method used is as follows.
Cell culture. The human epithelial breast cancer cell line T47D (origin: ATCC) was routinely maintained in a 1:1 mixture of Ham's F12 medium and Dulbecco's Modified Eagle Medium (Gibco) enriched with 5% fetal calf serum (Hyclone), 10 mM HEPES pH 7.5 and 100 μg/ml penicillin-streptomycin solution. Cells were grown in 80 cm2 culture flasks (Nunc, Roskilde, Denmark) and kept in an atmosphere of 5% CO2-95% air at 37 degrees Celsius. Cells were subcultured when they reached about 80-90% confluence, resulting in one passage a week. Subculturing includes detaching the cells using Cell Dissociation Buffer [Sigma] and subsequent inoculation at 1:5 or 1:10 in a new Roux flask (175 cc) and\or plating out in Nunclon™ Surface 96 wells microplates. The culture medium needs to be refreshed on day three or four of the incubation, if applicable.
Determination of ERα protein levels: T47D cells in the microplates are incubated with 1E-5 M test compound for 24 hours. The supernatant in all wells is carefully aspirated. […]

Take “4-(3-(2-chlorophenyl)-4-(4-(1-propylazetidin-3-yloxy)phenyl)isoxazol-5-yl)-phenol hydrochloride [compound 7au]”: in assay [1], the “ERα pIC50” value came out at 9.0. Also, at estrogen receptor alpha, the “DR (%)” value was found to be 89%.

Source of the values: US9540361B2, “N-substituted azetidine derivatives” (Merck Sharp & Dohme B.V., priority 2010, dated 2017).
